# scFv variants of Ab-14 (heavy chain) against a SARS-CoV-2 spike peptide

Values reported by Li et al. 2023, doi:10.1038/s41467-023-39022-2 (FLAb copy).

All variants were tested on one target, the spike HR2 peptide PDVDLGDISGINAS (SARS-CoV-2).

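The starting antibody came from a phage panning campaign against this peptide. These sequences belong to a second round, designed from the earlier measurements on random variants of the parent. Group labels follow the data file (Ctrl: baseline library sampled from a position-specific scoring matrix, with some repeated check sequences; En: ensemble of fine-tuned language models; GP: Gaussian process model; GPLM: also part of the Gaussian process libraries; HC: hill climbing; Gen: genetic algorithm; Gibbs: Gibbs sampling; a sequence that several methods proposed may carry one label only). In AlphaSeq, yeast of one mating type display the scFv and yeast of the other type display the target. The frequency of each diploid, read from paired DNA barcodes, reflects how well the two displayed proteins bind. A regression on co-assayed BCL2-family reference pairs converts the normalised counts of each replicate to an apparent Kd. Each pool was mated in six replicate cultures.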

Parent: Ab-14, a human scFv built as VH, a 15-residue (Gly4Ser)3 linker, VL. Only the CDRs of the heavy chain vary.
VH: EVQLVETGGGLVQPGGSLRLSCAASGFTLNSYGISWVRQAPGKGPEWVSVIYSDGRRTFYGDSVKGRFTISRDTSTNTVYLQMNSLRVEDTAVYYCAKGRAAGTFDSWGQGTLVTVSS
VL: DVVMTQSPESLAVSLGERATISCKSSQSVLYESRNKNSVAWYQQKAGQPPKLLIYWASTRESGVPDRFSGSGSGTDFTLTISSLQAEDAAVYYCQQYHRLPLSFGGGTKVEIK

Sequences are complete VH domains.
Numbers give log10(Kd / nM), so 0 is 1 nM and 3 is 1 µM. Smaller is tighter.
Averages over replicates are reported, and they cover detected replicates only.
Where no diploid with the target was found in any replicate, the entry reads "nd": below detection, most likely a poor binder, though not proof of it.

| VH | group | mean, log10 nM | detected |
|---|---|---|---|
| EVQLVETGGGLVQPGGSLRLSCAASGYDIQDYGISWVRQAPGKGPEWVSVIYADGVRTAYHDSVKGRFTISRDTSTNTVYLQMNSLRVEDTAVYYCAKGQLAGSFITWGQGTLVTVSS | En_Gibbs | 0.93 | 6/6 |
| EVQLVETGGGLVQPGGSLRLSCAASGFTLNSYGISWVRQAPGKGPEWVSVIYSDGRRTFYGDSVKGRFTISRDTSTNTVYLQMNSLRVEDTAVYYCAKSRAAGTFDSWGQGTLVTVSS | Ctrl | nd | 0/6 |
| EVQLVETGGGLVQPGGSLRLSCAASGFTINSYGISWVRQAPGKGPEWVSVIYSDGRRTFYGDSVKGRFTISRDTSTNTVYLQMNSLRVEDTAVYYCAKGRVAGTFDSWGQGTLVTVSS | Ctrl | nd | 0/6 |
| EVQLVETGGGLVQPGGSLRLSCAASGFDLNEYGISWVRQAPGKGPEWVSVIYADGMRTSYSDSVKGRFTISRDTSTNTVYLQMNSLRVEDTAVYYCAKGNQAGTFDVWGQGTLVTVSS | En_Gen | -0.30 | 6/6 |
| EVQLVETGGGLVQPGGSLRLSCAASGFDLNEYGISWVRQAPGKGPEWVSVIYADGRRTFYVDSVKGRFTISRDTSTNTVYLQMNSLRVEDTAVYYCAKGVNAGTFDIWGQGTLVTVSS | En_HC | -1.06 | 6/6 |
| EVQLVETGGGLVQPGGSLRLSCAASGFTLNDYGISWVRQAPGKGPEWVSVIYSDGWRTFYGDSVKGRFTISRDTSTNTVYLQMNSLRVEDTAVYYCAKGRAAGFFDSWGQGTLVTVSS | Ctrl | nd | 0/6 |
| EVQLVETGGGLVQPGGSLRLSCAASGFELNSYGISWVRQAPGKGPEWVSVIYSDGRRTFYGDSVKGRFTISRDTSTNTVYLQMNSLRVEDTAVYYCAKGSAAGTFDSWGQGTLVTVSS | GPLM_Gibbs | 0.79 | 6/6 |

Continued, with the values leading:

| mean, log10 nM | detected | VH | group |
|---|---|---|---|
| -1.03 | 6/6 | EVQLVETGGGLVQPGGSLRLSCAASGFSLNSYGISWVRQAPGKGPEWVSVIYSDGRRTFYTDSVKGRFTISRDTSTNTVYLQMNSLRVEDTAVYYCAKGQEAGTFDSWGQGTLVTVSS | GPLM_Gen |
| nd | 0/6 | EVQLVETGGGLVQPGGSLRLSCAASGFNLEEYGISWVRQAPGKGPEWVSVIYADGFRASYQNKVKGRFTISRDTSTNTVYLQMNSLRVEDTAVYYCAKGQDGSVMLDWGQGTLVTVSS | En_Gibbs |
| nd | 0/6 | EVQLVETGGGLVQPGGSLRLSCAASGFDLTEYGISWVRQAPGKGPEWVSVIYADGRRTQYQDAVKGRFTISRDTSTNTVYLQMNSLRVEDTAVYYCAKGLNGDMLVVWGQGTLVTVSS | En_Gibbs |
| -0.46 | 6/6 | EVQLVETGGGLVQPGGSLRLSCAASGFDLNEYGISWVRQAPGKGPEWVSVIYADGIRTAYADNVKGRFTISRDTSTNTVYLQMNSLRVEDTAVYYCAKGEVAGTFDVWGQGTLVTVSS | En_Gen |
| 0.73 | 6/6 | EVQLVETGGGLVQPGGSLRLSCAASGFSLNSYGISWVRQAPGKGPEWVSVIYSDGRRTFYDDSVKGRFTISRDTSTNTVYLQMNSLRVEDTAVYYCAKGQVAGKFDSWGQGTLVTVSS | GP_HC |
| 0.04 | 6/6 | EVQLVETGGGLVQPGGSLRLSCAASGFELNEYGISWVRQAPGKGPEWVSVIYADGRRTFYGDSVKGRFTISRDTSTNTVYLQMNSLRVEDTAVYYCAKGGAAGTFDGWGQGTLVTVSS | GP_HC |
| 1.36 | 6/6 | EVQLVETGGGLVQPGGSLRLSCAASGFSLNSYGISWVRQAPGKGPEWVSVIYSDGRRTFYGDSVKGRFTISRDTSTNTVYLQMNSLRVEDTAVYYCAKGMKAGTFDSWGQGTLVTVSS | GP_Gibbs |

In the paper, a design with two or fewer of six values counts as a poor binder.
Three control strains display no target. For all heavy chain designs, 1% of the pairings with them gave a signal, with a median of 2.08 and one signal in twenty below 0.84, so weak values seen in few replicates may be background.
A sequence measured in both rounds can read differently, since the two assays cover different ranges.